The record followed here is the supplement of paper PMC12582362.

The hits were mostly taken out for another list; the other results follow.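 Rule for the calls: active = robust z-score below -2; a few such results were not called.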

This experiment concerns optoTopBP1 Flp-In 293 T-REx (HEK293) cells. The experiment in a line: light-induced TopBP1 condensate (nuclear foci) count, plate-normalised robust z-score vs non-control wells; higher = more TopBP1 condensates (negative = condensation inhibitor), active = hit call of the paper. The following applies: 10 µM; incubation time 2 h.
Turning to `COc1cc(Br)c(C[N+]2(CCOCCC3CCC4CC3C4(C)C)CCOCC2)cc1OC` (stereo unspecified) [Pinaverium bromide], the “light-induced TopBP1 condensate (z-score)” value is inactive: 0.303.
